The list is not random: actives were taken first. Their share in the collection is about 1.9%.
PglD inh – C. jejuni PglD acetyltransferase inhibitors, primary screen, biochemical, DTNB colorimetric, single point; 360,000 tested, 0.098% active; purified PglD enzyme, DTNB colorimetric CoA detection; AID 602405, 2012; UDP-N-acetylbacillosamine N-acetyltransferase PglD (Campylobacter jejuni); inhibition, % at 12.5 µM; in the data active = inhibition above about 16%, passing the limit was not always enough
ERp5 block – inhibitors of ERp5-driven insulin aggregation, primary screen, biochemical, turbidity, absorbance 650 nm, single point; 350,000 tested, 0.05% active; inhibition, % at 9.99 µM; 90 min; Protein disulfide-isomerase A6 (Homo sapiens), Q15084;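 active = mean replicate inhibition above about 25%, with every replicate also reaching it, limit read from the data, passing the limit was not always enough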
ARNT-TACC3 inh – disruptors of ARNT/TACC3 protein interaction, primary screen, biochemical, AlphaScreen, single concentration; Transforming acidic coiled-coil-containing protein 3 (Homo sapiens), Q9Y6A5; AlphaScreen His-ARNT PAS-B/GST-TACC3 binding, luminescence; TACC3 fragment carries E629A point mutation; inhibition, % at 9.99 µM; 390,000 tested, 0.66% active; AID 623870, 2012;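 active = mean inhibition of replicates at least 50% and at least half of replicates each reaching 50%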;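 also: 0% = complete ARNT plus TACC3 wells and 100% = ARNT alone without TACC3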
FGF22 binding – binders of human FGF22 protein, primary screen, FGF22 synaptogenesis inhibitor project, biophysical, thermal shift, single point | Fibroblast growth factor 22 (Homo sapiens), Q9HCT0 | recombinant FGF22 thermal shift, SYPRO orange fluorescence; percent of sucrose octasulfate shift, DMSO zero | activity (Tm shift, normalised), % at 9.99 µM | 340,000 tested, 1.5% active | AID 651658, 2012;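 active = mean Tm shift, scaled 0 neutral to 100 positive control, at about 1.3% or above, every replicate too, limit read from the data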
PDI turbidity – inhibitors of human PDI, primary screen, biochemical, turbidity, single point, plate reader; Protein disulfide-isomerase (Homo sapiens), P07237; AID 588391, 2011; 350,000 tested, 0.052% active; PDI insulin aggregation turbidity, A650, 90 min; inhibition, % at 10 µM;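 active = mean inhibition across replicates of 30% or more, whatever share of single replicates reach that level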
UUG fidelity – yeast start codon fidelity modulation; AID 602363; activity score, % at 18.7 µM; S. cerevisiae UUG-firefly luciferase reporter, luminescence/redox ratio; 0.13% of 350,000 active;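 active means replicate mean at a twofold rise or more, about +100% in these data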;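 further: firefly luciferase made from a UUG start codon reports start codon fidelity; reporter light over untreated wells divided by growth signal over untreated wells; some hits fall short of that in this replicate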
ARNT Alpha ctr – AlphaScreen signal interference compounds, dose response, artefact control for ARNT-TACC3 interaction inhibitor project, biochemical, luminescence, cherry-pick; shares compounds with ARNT-TACC3 inh; His-ARNT PASB-GST AlphaScreen artifact counter-screen; AC50, µM (titrated, usually from 68 µM), for inactives: at the top dose activity change, negative = signal decrease; 1,200 tested, 50% active; AID 651705, 2012;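 active = every separate test run was called active for a drop in luminescence, with AC50 within twice the top valid dose, actives reach about 71 µM in these data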
* = called active by the depositor.

Screening O=C(CSc1n[nH]c(-c2ccccn2)n1)Nc1cccc(Cl)c1 returned PglD inh 2, ERp5 block 0, ARNT-TACC3 inh 56*, FGF22 binding 0, PDI turbidity -9, UUG fidelity -20 and ARNT Alpha ctr 14µM*.
Cc1ccc(C)c(NC(=O)CSc2n[nH]c(-c3ccccn3)n2)c1 was read as ERp5 block -4, ARNT-TACC3 inh 77*, FGF22 binding 0, PDI turbidity -9 and ARNT Alpha ctr 10µM*.
`Cc1nc(SCC(=O)Nc2cccc(Cl)c2)n[nH]1` gave PglD inh 0, ERp5 block 0, ARNT-TACC3 inh -10, PDI turbidity 0 and UUG fidelity -9.
For Cc1noc(C)c1S(=O)(=O)Nc1cccc2c1O[C@@H](CN(C)C(=O)Nc1ccc(F)cc1)[C@@H](C)CN([C@@H](C)CO)C2=O the results were PglD inh -3, ERp5 block -4, ARNT-TACC3 inh 0, FGF22 binding 0 and UUG fidelity 4.
Screening N#CC1=C(N)Oc2c(ccc3cccnc23)C1c1cccnc1 (centres undefined) returned PglD inh -3, ARNT-TACC3 inh 55*, PDI turbidity -5, UUG fidelity -32 and ARNT Alpha ctr 41µM*.
`Cc1ccc2cc(C3C(C#N)=C(N)Oc4c3ccc3cccnc43)c(=O)[nH]c2c1` (centres undefined) gave PglD inh -6, ERp5 block 1, ARNT-TACC3 inh 52*, FGF22 binding 0, PDI turbidity 0, UUG fidelity -22 and ARNT Alpha ctr 52µM*.
Screening CCN(CC)S(=O)(=O)c1ccc(NN)nc1 returned ERp5 block -5, ARNT-TACC3 inh 56*, FGF22 binding 42, PDI turbidity 0 and ARNT Alpha ctr 45µM*.
For CC(C)N(C(C)C)S(=O)(=O)c1ccc(NN)nc1 the results were PglD inh -4, ERp5 block 2, ARNT-TACC3 inh -3, FGF22 binding 0, PDI turbidity -13 and UUG fidelity -20.
`Cc1cccc(S(=O)(=O)N[C@H]2CC[C@H](CCn3cc(-c4ccccn4)nn3)O[C@H]2CO)c1` gave PglD inh 2, ERp5 block -4, ARNT-TACC3 inh 90*, FGF22 binding 0, UUG fidelity 3 and ARNT Alpha ctr 57µM*.
O=S(=O)(N[C@H]1CC[C@H](CCn2cc(-c3ccccn3)nn2)O[C@H]1CO)c1cccc(F)c1 was read as PglD inh 0, ERp5 block -5, ARNT-TACC3 inh 67*, FGF22 binding 0, UUG fidelity -3 and ARNT Alpha ctr 43µM*.
O=S(=O)(N[C@H]1CC[C@H](CCn2cc(-c3cccc(F)c3)nn2)O[C@H]1CO)c1ccccc1 was read as PglD inh 0, ERp5 block 8, ARNT-TACC3 inh -1, FGF22 binding 0 and UUG fidelity -7.
O=S(=O)(N[C@H]1CC[C@H](CCn2cc(-c3ccccn3)nn2)O[C@@H]1CO)c1cccc(F)c1 was read as PglD inh 0, ERp5 block -2, ARNT-TACC3 inh 78*, FGF22 binding 0, UUG fidelity 3 and ARNT Alpha ctr 34µM*.
O=S(=O)(N[C@H]1CC[C@@H](CCn2cc(-c3ccccn3)nn2)O[C@@H]1CO)c1cccc(F)c1 was read as PglD inh 2, ERp5 block -3, ARNT-TACC3 inh 68*, FGF22 binding 0, UUG fidelity -8 and ARNT Alpha ctr 34µM*.
For COCC(=O)N(C)C[C@H]1Oc2cc(C3=CCCC3)ccc2S(=O)(=O)N([C@@H](C)CO)C[C@H]1C the results were PglD inh 1, ERp5 block -1 and UUG fidelity 3.
O=S(=O)(N[C@@H]1CC[C@@H](CCn2cc(-c3ccccn3)nn2)O[C@@H]1CO)c1cccc(F)c1 was read as PglD inh -2, ERp5 block -5, ARNT-TACC3 inh 94*, FGF22 binding 0, UUG fidelity -8 and ARNT Alpha ctr 47µM*.

Retrieved by compound from the list above:
O=S(=O)(N[C@H]1CC[C@H](CCn2cc(-c3ccccn3)nn2)O[C@H]1CO)c1cccc(F)c1 was read as PglD inh 0, ERp5 block -5, ARNT-TACC3 inh 67*, FGF22 binding 0, UUG fidelity -3 and ARNT Alpha ctr 43µM*.
Screening N#CC1=C(N)Oc2c(ccc3cccnc23)C1c1cccnc1 (centres undefined) returned PglD inh -3, ARNT-TACC3 inh 55*, PDI turbidity -5, UUG fidelity -32 and ARNT Alpha ctr 41µM*.
O=S(=O)(N[C@H]1CC[C@H](CCn2cc(-c3cccc(F)c3)nn2)O[C@H]1CO)c1ccccc1 was read as PglD inh 0, ERp5 block 8, ARNT-TACC3 inh -1, FGF22 binding 0 and UUG fidelity -7.

The results go on:
Screening C[C@@H]1CN([C@H](C)CO)C(=O)c2cc(NC(=O)CCN3CCOCC3)ccc2O[C@H]1CN(C)C returned PglD inh 3, ERp5 block 0, ARNT-TACC3 inh -7, FGF22 binding 0 and UUG fidelity -16.
`c1ccc(-c2nc3cc4ccccc4cc3[nH]2)nc1` gave PglD inh 1, ARNT-TACC3 inh 15*, PDI turbidity -2, UUG fidelity -72 and ARNT Alpha ctr -36%.
For C[C@@H]1CCCCO[C@H](CN(C)C(=O)CCC(F)(F)F)[C@H](C)CN([C@@H](C)CO)C(=O)c2cc(NC(=O)c3ccccc3)ccc2O1 the results were PglD inh -1, ERp5 block 0, ARNT-TACC3 inh -1, FGF22 binding 0 and UUG fidelity 11.
`O=C(Nc1ccc(Br)cn1)c1cccc(C(=O)Nc2ccc(Br)cn2)c1` gave PglD inh 5, ERp5 block -2, ARNT-TACC3 inh active, FGF22 binding 0, PDI turbidity 5, UUG fidelity -40 and ARNT Alpha ctr -1%.
Screening Cc1cc(=O)n2c3c(c4c(cc13)c(CN(C)C)cc(=O)n4C)OC2 returned ERp5 block -9, ARNT-TACC3 inh 34*, FGF22 binding -1, PDI turbidity 3 and ARNT Alpha ctr -21%.
For Cc1nc(Nc2ccc(C(=O)O)cc2)nc(Nc2ccc(C(=O)O)cc2)c1[N+](=O)[O-] the results were ERp5 block 4, ARNT-TACC3 inh 64*, FGF22 binding 0, PDI turbidity 2 and ARNT Alpha ctr 9.4µM*.
CC=Cc1ccc2n(c1=O)C[C@H]1[C@H](CO)[C@@H](C(=O)NC3CCCC3)N(CC3CCCCC3)[C@@H]21 (mixture of isomers) was read as PglD inh 6, ERp5 block -13, ARNT-TACC3 inh 5 and FGF22 binding 0.
`O=C(CN1CCCCCC1)Nc1ccccc1[N+](=O)[O-]` gave PglD inh 7, ERp5 block 2, ARNT-TACC3 inh 51*, PDI turbidity -6, UUG fidelity 5 and ARNT Alpha ctr -11%.

Screening data as filed in PubChem.
